{
  "sequences": {"note": "Chains of the proteins cited; added tags and fusions are not shown.", "UniProt O14744, whole entry": "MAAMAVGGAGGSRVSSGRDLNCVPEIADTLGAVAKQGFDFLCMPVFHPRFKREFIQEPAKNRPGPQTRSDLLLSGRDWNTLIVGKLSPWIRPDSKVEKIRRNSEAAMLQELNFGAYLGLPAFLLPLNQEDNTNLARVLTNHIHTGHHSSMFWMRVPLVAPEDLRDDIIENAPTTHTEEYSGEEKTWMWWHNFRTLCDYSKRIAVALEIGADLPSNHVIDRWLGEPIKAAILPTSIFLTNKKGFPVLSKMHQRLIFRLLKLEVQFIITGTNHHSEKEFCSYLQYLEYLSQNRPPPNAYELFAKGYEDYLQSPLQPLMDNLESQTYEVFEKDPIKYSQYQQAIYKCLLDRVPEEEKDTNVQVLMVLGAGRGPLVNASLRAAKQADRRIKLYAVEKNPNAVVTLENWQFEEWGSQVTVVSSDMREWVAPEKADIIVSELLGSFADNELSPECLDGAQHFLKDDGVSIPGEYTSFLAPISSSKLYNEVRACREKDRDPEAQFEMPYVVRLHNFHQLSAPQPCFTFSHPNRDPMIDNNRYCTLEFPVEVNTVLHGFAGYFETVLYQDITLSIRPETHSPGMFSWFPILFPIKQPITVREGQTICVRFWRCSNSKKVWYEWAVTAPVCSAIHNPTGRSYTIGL", "UniProt Q9BQA1, whole entry partner": "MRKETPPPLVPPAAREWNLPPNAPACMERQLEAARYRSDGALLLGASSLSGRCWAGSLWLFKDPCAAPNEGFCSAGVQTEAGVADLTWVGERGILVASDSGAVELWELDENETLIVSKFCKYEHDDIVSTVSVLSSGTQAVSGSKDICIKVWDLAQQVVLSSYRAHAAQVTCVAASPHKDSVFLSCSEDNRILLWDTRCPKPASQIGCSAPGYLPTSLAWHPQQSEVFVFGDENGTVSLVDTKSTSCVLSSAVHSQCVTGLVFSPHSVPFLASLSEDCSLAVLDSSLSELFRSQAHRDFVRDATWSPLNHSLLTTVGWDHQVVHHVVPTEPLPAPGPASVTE"},
  "source": "patent US20220112194A1",
  "about": "“COMPOUNDS TARGETING PRMT5” (ALIGOS THERAPEUTICS, INC., priority 2020, published 2022)",
  "biological_target": "PRMT5/MEP50 (Homo sapiens, UniProt O14744)",
  "test": "PRMT5/MEP50 enzyme inhibition assay, Assay 2 (384-well, MALDI mass spectrometry, SAM, histone H4 1-21 peptide)",
  "conditions": "read-out: Assay 2 IC50; 1 μM SAM, 0.1 μM histone H4 1-21 peptide, 18-hour incubation at rt",
  "method": "Compounds were tested for inhibition of methyltransferase activity in 384-well plate assay format using mass spectrometry technology. In this enzyme inhibition assay, compounds were tested in a 11-dose IC50 mode with 3-serial dilution, in duplicate, starting at 1, 10, or 100 μM. Reactions were carried out at 1 μM SAM and 0.1 μM histone H4 1-21 peptide as substrates for methyl transfer. Following an 18-hour incubation at rt, the reaction was stopped with 0.5% formic acid. Products of the reaction were captured while unreacted substrates were washed away, prior to MALDI mass spectrometry detection and analysis. Percent enzyme activity was calculated based on no inhibitor DMSO control as 100% activity. EC50 values were determined in GraphPad Prism 8 using the [inhibitor] vs. response—Variable slope (four parameters) function.\nCompounds of Formula (I) show activity in this assay. A value of ‘A’ in the table below indicates an IC50 of <1 nM, a value of ‘B’ indicates an IC50≥1 nM to ≤100 nM, and a value of ‘C’ indicates an IC50 value of >100 nM.",
  "data": [
    {"molecule": "COC[C@]1(CCc2cc(F)c3cc(Cl)c(N)nc3c2)C[C@@H](n2ccc3c(N)nccc32)[C@H](O)[C@@H]1O", "values": [
      {"measurement": "IC50", "result": "< 1", "unit": "nM"}
    ]}
  ]
}
